# Binding of CDR-mutated scFvs to a peptide of the spike HR2 region

Source: Li et al. 2023 (doi:10.1038/s41467-023-39022-2), MIT Lincoln Laboratory and A-Alpha Bio; data file from the FLAb repository.

All variants were tested on one target, the spike HR2 peptide PDVDLGDISGINAS (SARS-CoV-2).

Each scFv is VH, a 15-residue (Gly4Ser)3 linker, VL, as in the parent Ab-14, and differs from it in the CDRs of the light chain only.
VH: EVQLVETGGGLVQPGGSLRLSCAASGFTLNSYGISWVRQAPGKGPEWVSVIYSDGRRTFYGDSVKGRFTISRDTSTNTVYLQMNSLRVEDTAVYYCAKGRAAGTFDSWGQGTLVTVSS
VL: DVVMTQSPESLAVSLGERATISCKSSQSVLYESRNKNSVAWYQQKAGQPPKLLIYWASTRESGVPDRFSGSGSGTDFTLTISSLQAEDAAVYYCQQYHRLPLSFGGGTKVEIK

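The parent was found by panning a naive human phage display library on the peptide. The variants were designed computationally from a first round of random CDR variants and then made and measured. Several design methods are mixed in this list. Affinity was read by AlphaSeq, a pooled yeast mating assay with surface-displayed partners. Binding brings cells together so that they mate, and sequencing counts the barcode pairs among the diploids. The ratio of observed to expected reads was calibrated, replicate by replicate, on BCL2-family standards whose Kd was known from biolayer interferometry. Each pool was mated in six replicate cultures.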

The parent's light chain CDRs are KSSQSVLYESRNKNSVA, WASTRES, QQYHRLPLS; each variant's own CDRs replace them letter for letter.
The Kd shown is the geometric mean over detected replicates; a lower Kd is a better binder.
"not detected" means that the variant was in the library but no mating with the target was seen in any replicate; the authors take this as a sign of poor binding, and no number exists.
In the paper, a design with two or fewer of six values counts as a poor binder.
A sequence measured in both rounds can read differently, since the two assays cover different ranges.
Of ten entries with the parent sequence, four were seen in most replicates (averages 2.2 nM to 240 nM), three in one and three in none, so single entries are noisy.
Where one sequence has several entries in the source, the replicates are pooled.
Empty control strains, which show no peptide, gave a signal in 4% of pairings with all light chain designs; the median was 430 nM and 95% of these signals were weaker than 38 nM. No background was subtracted.

CDR-L1	CDR-L2	CDR-L3	Kd (apparent)	replicates with signal
KSSQSVLYEDRNKNSVA	SESTREM	QQYHRLPLS	6.3 nM	6 of 6
KVSPSQLYESRNKNSVA	QASTRES	QQYHRLPLS	960 pM	6 of 6
KSSQSVLYEQHNKNSVA	WASHRES	QQYHRLPLS	41 nM	6 of 6
KISMVMENQLKNRNSVA	ELVTRLN	QQYNRLPLS	160 nM	6 of 6
KSGQGWLYESRNKNSVA	GASQRES	QQYHRLPLS	470 pM	6 of 6
KLQYSFMMLSRNDNSVA	DASTRES	QQYHRLPLS	500 pM	6 of 6
NVGQSMDGLSRNKNSVA	HQSTRED	QHYHRLPLS	74 nM	6 of 6
KSSQSVMYESRDKNSVA	WASTRES	QQYHRLPLS	not detected	0 of 6
KLRQVTGYESYMKNSVA	QTSTRVS	QDYHRLPLS	3.8 nM	6 of 6
KLLQNTGAGYRWAQNVA	HMSTRED	QQYHRLPFV	2.9 nM	6 of 6
KVSQSDLYESRNKNSVA	NASTRES	QQYHRLPLS	2.2 nM	12 of 12
MISDTGLHDSRMQNSVA	NNSTRES	QQYHRLPLS	29 nM	6 of 6
KLSGVMRMESKVSNSIA	EVNERPK	QQYDRLPLS	47 nM	6 of 6
KLSQSELYESRNKNSVA	DASTRLS	QQYHRLPLS	620 pM	6 of 6
KLSPSVLYESRNKNSVA	DASTRES	QQYHRLPLS	200 pM	6 of 6
TLYGLTNSMSKNKDNVA	EMSTREE	QQYDRLPLI	23 nM	6 of 6
RFTEHLLMLENKIYAIA	NATKTME	QQYFRLPFV	4.8 nM	6 of 6
MMHLCQNGYYQQNNNIA	DMNARMM	QQYGRLPLM	6.4 nM	6 of 6
KLSQSVLYESRNFNSVA	NASTRSS	QQYHRLPLS	1.3 nM	6 of 6
MISGLMLAGSRNKNPIA	NASTREY	QQYHRLPLS	140 nM	6 of 6
KSSHSPQYEWRAKNSVA	AASTREA	QQYHRLPLS	5.2 nM	6 of 6
KLSQSVLMESRMVNSVA	DASQREE	QQYHRLPLS	1.5 nM	6 of 6
KSSQSVLYESRNKNDVA	DASTRES	QQYHRLPLS	1.6 nM	6 of 6

The remaining entries, values ahead:

Kd (apparent)	replicates with signal	CDR-L1	CDR-L2	CDR-L3
3.4 nM	6 of 6	KFSQSVLYESRTKNGVA	GASTRES	QQYHRLPLS
580 pM	6 of 6	KQSYSVLQESRNKNSVA	DASTRES	QQYHRLPLS
2.6 nM	6 of 6	MAYGGDMVESVARNSVA	NAETRAD	QDYHRLPLS
17 nM	6 of 6	KSSQLVLGESDNKNSVA	WASTRES	QQYHRLPLS
680 pM	6 of 6	KQSKSVLFESRNKNSVA	NASTRES	QQYHRLPLS
8.5 nM	6 of 6	HISQMVMYGSCNKNNVA	QVSLRED	QQYHRLPLS
not detected	0 of 6	KSSQNVLYESRNRNSVA	WASTRES	QQYHRLDLS
4.5 nM	6 of 6	KALQSQEYESRNKNSVA	HASTRED	QQYHCLPLS
21 nM	6 of 6	RIFYNEEQDLRHNSSIA	NGSARVF	QQYYMLPLS
260 nM	3 of 6	MISQLMNVGQFAINSVA	QATIRNS	QQYDRLPLI
2.3 nM	6 of 6	KVSQSNLYESRNKNNVA	NASTRES	QQYHRLPLS
520 pM	6 of 6	NMVEDEAGDQKNSQNIA	SVDQRED	QQYQKLPLM
1.1 nM	6 of 6	KLSQSVEVLSRNKNSVA	NASTRES	QQYHRLPLS
1.1 nM	6 of 6	KHEEQVEYESRNKNSVA	NASTRLS	QQYHRLPLS
140 nM	4 of 6	MISGVLHMLGAKKNSIA	DLVLRAN	QQYHRLPLM
3.3 nM	6 of 6	KLSQSVLYESRNKNSVA	DGSTRES	QQYHRLPLS
2.9 nM	6 of 6	HMSALTLQGMRHRNSVA	QMTTREK	QQYDHLPLS
17 nM	5 of 6	KISQSVLYEDRTKNSVA	WATTRES	GQYHRLPLS
1.4 nM	6 of 6	TLSQSWGMESRNHNNVA	QESTREK	QQYFRLPIS
900 pM	6 of 6	KFSQSVLYESRNSNSVA	DASTRES	QQYHRLPLS
not detected	0 of 6	KLSNSTLYESRQKNSVA	WASTRES	QQYHRLPLS
1.7 nM	6 of 6	RYQMDDIEGKGARNNIA	DGAEVYR	QQYARLPLT
not detected	0 of 6	KSSQSVLYESRNKNSVA	GASTRES	YQYHRLPLS

The first 4 entries again:

CDR-L1	CDR-L2	CDR-L3	Kd (apparent)	replicates with signal
KSSQSVLYEDRNKNSVA	SESTREM	QQYHRLPLS	6.3 nM	6 of 6
KVSPSQLYESRNKNSVA	QASTRES	QQYHRLPLS	960 pM	6 of 6
KSSQSVLYEQHNKNSVA	WASHRES	QQYHRLPLS	41 nM	6 of 6
KISMVMENQLKNRNSVA	ELVTRLN	QQYNRLPLS	160 nM	6 of 6